The source of these data is patent US10792371B2, “c-Met targeting compound-bioactive material conjugate and use thereof” (Samsung Electronics Co., Ltd., priority 2013, dated 2020).

This assay relates to OE33 (esophageal cancer cell line overexpressing c-Met and HER2). Description: Internalization of fluorescently labeled antibody, confocal microscopy. Particulars: 1 ug/ml labeled antibody, 0, 10, 30 or 60 min, confocal microscope (FIG. 1). It is filed as cell-based. Here is the method: The cell line OE33 (esophageal cancer cell line, ECACC (European Collection of Cell Cultures), #96070808), which overexpresses both c-Met and HER2, was incubated for 0, 10, 30 or 60 min with 1 ug/ml of the anti-c-Met antibody L3-1Y/IgG2, or Herceptin (Roche) to which an equal amount of the fluorescent FNR675 (BioActs, # PWS1515) was previously labeled, and then observed under a confocal microscope (FIG. 1A). Separately, OE33 cells were incubated in the presence of both FITC-labeled anti-c-Met antibody L3-1Y/IgG2 and FNR675-labeled Herceptin, each 1 ug/ml, followed by confocal microscopy to compare internalization into the same cells therebetween (FIG. 1B).

Consider “Herceptin: anti-HER2 antibody Herceptin (Roche) [reference compound]”, for which the internalization into cells entry is given as “not to enter the cells, but to remain on cell surfaces”.
